# According to PubChem BioAssay AID2555 (Johns Hopkins Ion Channel Center, 2010):
# The entries are a selection whose mix differs from that of the whole data set. Some results for these compounds are left out of this collection, so the calls shown say nothing about other tests. The source made the active and inactive calls.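 How the source made its calls: active means primary screen hit whose calcium fluorescence ratio, in both repeats, exceeds the weak agonist control mean by 3 SD; inactive means the rest.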
# System: TRPC4 beta (transient receptor potential cation channel C4), mouse
# Assay: positive allosteric modulators of mouse TRPC4, confirmation, cell-based, Fluo-4, HEK293 TRPC4beta/mu-opioid (AID 2555)
# Settings: DAMGO EC20, Fluo-4 calcium flux, at 10 µM
row,SMILES,outcome
1,CN(C)c1ccc(C(=O)NCC2(N(C)C)CCCCC2)cc1,inactive
